Values quoted from earlier work, collected in patent US7235142B2, “Non-toxic corrosion-protection rinses and seals based on cobalt” (University of Dayton, priority 2002, dated 2007).

Details: pH 7

F[Si-2](F)(F)(F)(F)F.[Sr+2] [Strontium hexafluorosilicate]
Solubility in Water: 1.3 × 10^−1^ mole/L
